This experiment has as its system Staphylococcus aureus SA-1199B. In kind it is cell-based. From the text: For purposes of comparison, compound 1 was included as a reference.

Where two headings read alike, the source gives them in different places.

Turning to `CN1c2c(-c3ccc(F)cc3)n[nH]c2-c2ccccc2S1(=O)=O` [Compound 12, 3‐(4‐Fluorophenyl)‐4‐methyl‐1,4‐dihydropyrazolo[4,3‐c][1,2]benzothiazine 5,5‐dioxide], the “N° fold CPX MIC reduction” value is 2 fold (EPI at 3.12 µg/mL) and 4 fold (EPI at 12.5 µg/mL).

These data come from PMC12089509, “NorA Efflux Pump Inhibitors: Expanding SAR Knowledge of Pyrazolo[4,3‐c][1,2]benzothiazine 5,5‐Dioxide Derivatives” (Archiv Der Pharmazie, 2025).
